From patent US20230050440A1 (Seagen, published 2023) come the findings set out here.

In this experiment the target is T1, cyno TIGIT-Fc (cynomolgus monkey).
T1 construct: not shown: Fc part
The experiment can be described thus: BLI (ForteBio), IgG on sensor, avid.

B1: Clone 13D (antibody, V domains shown)
VH: QVQLVQSGAEVKKPGSSVKVSCKASGGTFLSSAISWVRQAPGQGLEWMGSIIPYFGKANYAQKFQGRVTITADESTSTAYMELSSLRSEDTAVYYCARGPSEVKGILGYVWFDPWGQGTLVTVSS
VL: not shown
In the case of B1, the Kd (as a rule, a measure of binding affinity in units of concentration) was found to be 1.16 nM.
